Source: BindingDB's records for doi:10.1016/j.chembiol.2004.12.010 (National Institutes of Health, 2005)

Target: Adenosine receptor A2a (Homo sapiens, UniProt P29274)
Experiment: Binding Assay
Source text: Binding affinity of ligand at human adenosine receptors expressed in CHO cell.

## NCCNC(=O)[C@H]1O[C@@H](n2cnc3c(N)ncnc32)[C@H](O)[C@@H]1O [5'-N-[(2-AMINO)ETHYL CARBOXAMIDO] ADENOSINE]
  Ki: 3.12 µM
